Assay results taken from US20240382474A1, “ENPP1 MODULATORS AND USES THEREOF” (Vir Biotechnology, Inc., priority 2021, published 2024).

By UniProt entry, the sequences of proteins in these tests, tags left out. Residues count along the entry.
UniProt P22413, 191-591 limits assumed: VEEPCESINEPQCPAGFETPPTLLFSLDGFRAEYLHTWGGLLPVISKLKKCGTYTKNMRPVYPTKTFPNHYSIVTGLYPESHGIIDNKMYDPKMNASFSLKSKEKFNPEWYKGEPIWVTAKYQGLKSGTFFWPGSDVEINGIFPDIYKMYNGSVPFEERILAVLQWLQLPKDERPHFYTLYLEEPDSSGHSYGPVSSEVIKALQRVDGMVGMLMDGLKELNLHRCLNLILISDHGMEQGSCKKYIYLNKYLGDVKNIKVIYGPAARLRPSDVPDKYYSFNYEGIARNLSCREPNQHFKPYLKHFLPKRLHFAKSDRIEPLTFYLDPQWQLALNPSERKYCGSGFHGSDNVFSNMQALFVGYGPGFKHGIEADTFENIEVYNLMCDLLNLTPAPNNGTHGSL

Target: human ENPP1 enzymatic domain (Homo sapiens, UniProt P22413)
Assay: ENPP1 Enzymatic Inhibition Assay (2′3′-cGAMP substrate, AMP-Glo luminescence)
Conditions: read-out: ENPP1 (cGAMP) Inhibition, 1 nM ENPP1, 20 uM 2′3′-cGAMP, 30 minutes at 37° C.
Description: The inhibition of ENPP1's phosphodiesterase activity were tested in a purified enzymatic assay using 2′3′-cyclic GAMP as a substrate which allowed for the release of cleaved AMP to be monitored using a luminescent assay.
Putative inhibitors were diluted in assay buffer (50 mM Tris pH 8.0, 250 mM NaCl, 0.5 mM CaCl2), 1 uM ZnCl2, 1% DMSO) and pre-incubated for 15 minutes at 37° C. with recombinant protein containing the human ENPP1 enzymatic domain (Viva Biotech). The enzymatic reaction was initiated upon addition of the 2′3′-cGAMP substrate. The final reaction concentrations were 1 nM ENPP1 and 20 uM 2′3′-cGAMP substrate in a 25 uL volume. Inhibitor concentrations ranged from 10 uM to 0.056 nM. The reaction was incubated for 30 minutes at 37° C.
After reacting for 30 minutes, the amount of AMP generated from the cleavage of 2′3′-cGAMP was determined using the Promega AMP-Glo method according to the manufacturer's protocol. […] The luminescence of the mixture was read on a Perkin Elmer Ensight plate reader.
The maximum and minimum levels of ENPP1 activity were established using no inhibitor and no enzyme controls, respectively. The activity observed using ENPP1 inhibitors was quantified as the percent of activity relative to these controls. IC50 values were calculated using CDD Vault by fitting a sigmoidal variable slope nonlinear regression model to the data.

IC50: < 10 nM
SMILES: CCC(NS(=N)(=O)c1ccc(Oc2ccnc3cc(OC)ccc23)cc1)c1ccn(C)n1 (single isomer, unassigned)
